Values of other authors, collected in patent publication US20030194514A1 (priority 2002, published 2003).

Conditions: per Brit. 1,132,417; cited from earlier work

Substance: beta-ionone
- Effectiveness of the solvent in stabilizing propargyl bromide: effective
